For this test, the system named is UV4. Put plainly: Hypersensitivity factor which is a ratio of IC50 of AA8 cells to that of the UV4 cells.

Consider `CN(CCCl)CCCl`, for which the Ratio was 28.
